Test system: regulatory T cells (Treg)
Assay: IL-2 treatment of mice overexpressing IL-27 (second hydrodynamic delivery experiment)
Type: in vivo, mouse
Conditions: IL-2 i.p., four injections days 13-14
Procedure: A second hydrodynamic delivery experiment was conducted to determine whether IL-2 treatment of mice overexpressing IL-27 could increase expression of CD25 and FoxP3 on regulatory T cells (Treg).
C57BL/6 female mice (age approximately 8 weeks) were divided into four groups of four mice each. Mice in groups 1 and 2 received empty-vector pLIVE DNA (20.micro.g in 2 ml sterile saline), and mice in groups 3 and 4 received pLIVE-IL27 DNA (20.micro.g in 2 ml sterile saline) via tail vein injection. Mice were treated by intraperitoneal injection with 100.micro.1/mouse of either diluent (groups 1 and 3) or recombinant human IL-2 (R&D Systems, Inc.; Minneapolis, Minn.; diluted to 10.micro.g/ml in PBS) (groups 2 and 4) on days 13-14 (total of four injections at 8-hour intervals). One hour after the last injection, the mice were sacrificed. Splenectomy was performed, then serum was collected by cardiac puncture. Spleen and thymus were collected for FACS analysis. Tissues were placed in individual tubes containing sterile PBS, on ice. Serum was analyzed for levels of IL-27 by ELISA.

## IL-2: Recombinant human IL-2 (R&D Systems, Inc.)
  FoxP3 or CD25 expression of splenic Treg exposed to IL-27: did not increase FoxP3 or CD25 expression in response to IL-2
  reversal of the effects of IL-27 overexpression on Treg: not able to reverse the effects of IL-27 overexpression on Treg
  thymic T-cells, splenic NKT cells, NK cells, B cells, macrophages, granulocytes, dendritic cells: did not result in significant differences
Mice overexpressing IL-27
  spleen cell numbers in response to IL-2: did not increase spleen cell numbers in response to IL-2

— patent US20100093076A1, “SOLUBLE IL-27 RECEPTOR” (priority 2006, published 2010)
